# Test results taken from ChEMBL document CHEMBL4396930, “Identification of new dual FABP4/5 inhibitors based on a naphthalene-1-sulfonamide FABP4 inhibitor” (Bioorg Med Chem, 2019).
# By UniProt entry, the sequences of proteins in these tests, tags left out.
# UniProt Q01469, whole entry: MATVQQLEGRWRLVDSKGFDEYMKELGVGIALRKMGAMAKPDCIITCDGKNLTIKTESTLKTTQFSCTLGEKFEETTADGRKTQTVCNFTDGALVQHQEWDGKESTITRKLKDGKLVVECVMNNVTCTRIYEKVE
# Target: Fatty acid-binding protein 5 (Homo sapiens, UniProt Q01469)
# Settings: 100 uM
row,inhibition,SMILES
1,27%,COc1c(-c2cncnc2)cc(S(=O)(=O)Nc2ccc(F)c(C(=O)O)c2)c2ccccc12
2,48%,COc1c(-c2ccnn2C)cc(S(=O)(=O)Nc2ccc(F)c(C(=O)O)c2)c2ccccc12
